Experimental data: ChEMBL document CHEMBL1137191, “Evaluation of pyrrolidin-2-imines and 1,3-thiazolidin-2-imines as inhibitors of nitric oxide synthase” (Bioorg Med Chem Lett, 2004)

Chains of the proteins cited; added tags and fusions are not shown.
UniProt P35228, whole entry: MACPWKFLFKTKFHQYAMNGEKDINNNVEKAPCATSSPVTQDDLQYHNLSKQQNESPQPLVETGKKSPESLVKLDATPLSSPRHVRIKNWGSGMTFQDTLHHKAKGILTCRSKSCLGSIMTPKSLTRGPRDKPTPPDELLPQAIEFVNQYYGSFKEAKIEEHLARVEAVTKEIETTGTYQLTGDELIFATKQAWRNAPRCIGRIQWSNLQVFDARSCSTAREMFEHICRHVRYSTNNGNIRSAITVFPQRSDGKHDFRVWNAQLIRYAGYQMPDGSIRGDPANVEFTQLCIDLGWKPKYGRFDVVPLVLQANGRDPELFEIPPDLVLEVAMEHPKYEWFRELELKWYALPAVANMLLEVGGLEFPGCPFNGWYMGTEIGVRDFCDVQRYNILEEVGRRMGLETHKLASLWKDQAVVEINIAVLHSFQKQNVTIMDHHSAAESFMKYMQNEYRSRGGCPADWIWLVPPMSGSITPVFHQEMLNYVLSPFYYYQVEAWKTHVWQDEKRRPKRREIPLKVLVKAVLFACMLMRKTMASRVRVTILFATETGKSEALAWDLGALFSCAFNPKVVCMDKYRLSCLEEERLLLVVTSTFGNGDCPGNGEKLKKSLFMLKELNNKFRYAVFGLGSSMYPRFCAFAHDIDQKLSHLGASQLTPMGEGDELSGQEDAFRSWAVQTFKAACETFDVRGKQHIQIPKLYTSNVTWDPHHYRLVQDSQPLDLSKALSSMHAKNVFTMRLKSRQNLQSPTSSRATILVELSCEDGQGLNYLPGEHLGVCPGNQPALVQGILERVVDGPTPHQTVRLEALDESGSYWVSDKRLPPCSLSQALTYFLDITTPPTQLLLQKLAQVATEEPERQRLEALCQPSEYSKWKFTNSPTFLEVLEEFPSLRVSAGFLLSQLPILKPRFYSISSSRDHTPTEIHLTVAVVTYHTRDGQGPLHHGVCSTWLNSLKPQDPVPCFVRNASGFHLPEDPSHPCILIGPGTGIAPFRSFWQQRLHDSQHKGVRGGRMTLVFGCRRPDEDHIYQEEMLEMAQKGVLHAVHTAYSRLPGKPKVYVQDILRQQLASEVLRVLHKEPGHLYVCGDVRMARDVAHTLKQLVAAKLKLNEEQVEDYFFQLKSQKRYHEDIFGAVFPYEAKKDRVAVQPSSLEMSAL

Assays:
[1] = biological target: Nitric oxide synthase, inducible (Homo sapiens, UniProt P35228); experiment: Inhibitory activity against Inducible nitric oxide synthase
Nitric oxide synthase 3 = biological target: T1, Nitric oxide synthase 3 (Homo sapiens, UniProt P29474); experiment: Inhibitory activity against Endothelial nitric oxide synthase
T1 sequence (P29474 whole entry): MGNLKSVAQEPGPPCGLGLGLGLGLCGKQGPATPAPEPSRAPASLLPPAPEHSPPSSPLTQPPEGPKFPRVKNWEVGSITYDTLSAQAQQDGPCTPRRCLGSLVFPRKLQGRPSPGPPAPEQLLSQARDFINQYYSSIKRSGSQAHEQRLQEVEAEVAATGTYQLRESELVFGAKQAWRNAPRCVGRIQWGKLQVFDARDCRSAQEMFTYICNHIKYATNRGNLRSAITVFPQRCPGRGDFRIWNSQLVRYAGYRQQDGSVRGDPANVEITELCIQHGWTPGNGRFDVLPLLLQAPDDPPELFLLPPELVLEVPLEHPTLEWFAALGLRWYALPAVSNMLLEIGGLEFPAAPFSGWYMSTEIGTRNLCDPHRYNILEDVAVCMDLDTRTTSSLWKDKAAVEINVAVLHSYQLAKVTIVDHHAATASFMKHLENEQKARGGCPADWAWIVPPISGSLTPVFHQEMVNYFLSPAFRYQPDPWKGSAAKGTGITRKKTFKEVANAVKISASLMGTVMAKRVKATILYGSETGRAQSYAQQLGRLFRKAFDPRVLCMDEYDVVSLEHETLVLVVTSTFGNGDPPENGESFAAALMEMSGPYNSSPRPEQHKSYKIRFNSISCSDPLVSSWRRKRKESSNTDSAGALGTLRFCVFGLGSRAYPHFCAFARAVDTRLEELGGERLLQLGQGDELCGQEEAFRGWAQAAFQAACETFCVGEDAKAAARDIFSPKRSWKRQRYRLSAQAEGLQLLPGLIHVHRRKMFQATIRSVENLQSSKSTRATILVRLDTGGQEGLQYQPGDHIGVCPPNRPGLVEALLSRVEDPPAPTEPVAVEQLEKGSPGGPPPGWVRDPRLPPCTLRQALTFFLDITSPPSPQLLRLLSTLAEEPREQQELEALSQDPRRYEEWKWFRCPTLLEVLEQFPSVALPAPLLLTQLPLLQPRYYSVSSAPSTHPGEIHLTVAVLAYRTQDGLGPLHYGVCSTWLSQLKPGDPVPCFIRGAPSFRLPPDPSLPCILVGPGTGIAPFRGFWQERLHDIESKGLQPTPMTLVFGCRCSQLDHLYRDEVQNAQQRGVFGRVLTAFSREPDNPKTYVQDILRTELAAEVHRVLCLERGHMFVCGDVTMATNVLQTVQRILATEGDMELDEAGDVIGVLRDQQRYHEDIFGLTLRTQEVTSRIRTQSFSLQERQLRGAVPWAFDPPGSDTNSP

`NC1=NCC2CCCCC12` (configuration not stated) gave an IC50 [1] of 1.2 µM and an IC50 (Nitric oxide synthase 3) of 24 µM.
